Test results as given in ChEMBL document CHEMBL3621104, “Discovery of Indoline-2-carboxamide Derivatives as a New Class of Brain-Penetrant Inhibitors of Trypanosoma brucei” (J Med Chem, 2015).

experiment: in vitro; details: human, MRC5 cells

| SMILES | selectivity ratio |
| --- | --- |
| CNC(=O)C1Cc2ccccc2N1C(=O)COc1ccc(Cl)cc1 (stereo not drawn) | > 1800 |
| CNC(=O)C1Cc2ccccc2N1C(=O)COc1ccc(F)cc1 (stereo not drawn) | > 2700 |
| CNC(=O)C1Cc2cc(F)ccc2N1C(=O)COc1ccc(F)cc1 (stereo not drawn) | > 720 |
